2 compounds from PubChem BioAssay AID504884 (Broad Institute, 2011) can be followed below.

Only a part is listed here, and it is no random draw. Active and inactive are the calls of the source. No stated cut-off is given here; in the data, active means activity above about 50% (passing the limit was not always enough); inconclusive means no clear call, values can overlap the other calls.

In this assay the test system is DNA topoisomerase I (Yersinia pestis CO92). Kind of assay: Yersinia pestis topoisomerase I inhibitors, primary screen, biochemical, cleavage product accumulation, plate reader, single point (AID 504884). The following applies: Y. pestis Topo-I cleavage product accumulation, at 10 µM, hits give high values.
Consider `CCC(=O)N(c1ccccc1)C1(COC)CCN(CCc2cccs2)CC1`, for which the activity was inactive: 23.9%.

As for `CCC(=O)N(c1ccccc1)C1(COC)CCN(CCn2nnn(CC)c2=O)CC1`, the activity was inactive: 3.79%.
